The subject of series [1] is NCI-H2110 human NSCLC cells. Description: In vivo efficacy, NCI-H2110 NSCLC subcutaneous xenograft. On the set-up: species or system SCID mice. As to conditions: single. An excerpt: SCID mice (24 animals) were inoculated with NCI-H2110 human NSCLC cells (1×10^7 cells/animal) injected subcutaneously into the right flank of the mice.
Doses are given based on D2 or D5 concentration.

For series [2], the system named is cells that express folate receptor alpha (FRα) on their cell surface. Description: In vitro cytotoxicity on multiple FRα+ cell lines, with and without FRα block. It counts as cell-based. As for the experimental part:
The cell lines were cultured in culture medium as recommended by the cell supplier (ATCC or DSMZ). To each well of a flat bottom 96-well plate was added 1,000-2,000 cells in 100 μL of the culture medium. Conjugates were diluted into the culture medium using 3-fold dilution series and 100 μL were added per well. To determine the contribution of FRα-independent cytotoxicity, cells in some wells were pre-incubated with 2 μM huMOV19 antibody prior to the addition of conjugates (“blocked” or “+B”). Control wells containing cells and the medium but lacking the conjugates, as well as wells containing medium only, were included in each assay plate. Assays were performed in triplicate for each data point. The plates were incubated at 37° C. in a humidified 6% CO2 incubator for 5 to 6 days. Then the relative number of viable cells in each well was determined using either the Alamar Blue reagent according the manufacturer's protocol (Life Technologies) or the WST-8 based Cell Counting Kit-8 (Dojindo Molecular Technologies, Inc., Rockville, Md.). The apparent surviving fraction of cells in each well was calculated by first correcting for the medium background absorbance, and then dividing each value by the average of the values in the control wells (non-treated cells). The surviving fraction of cells was plotted against conjugate concentration in semi-log plots.

Series [3] is described as follows: Acute tolerability / MTD study, single dose. It counts as in vivo, female CD-1 mice. As to conditions: for Mean % body weight loss at nadir / Result / day of death: qd ×1; for Drug death: qd ×1, based on D5 concentration, n=8. As for the experimental part: Female CD-1 mice, 7 weeks old, were received from Charles River Laboratories. Mice were housed for an acclimation period of at least 7 days upon arrival prior to study initiation.
For the MTD study, animals were randomized into groups (n=8) based on body weight. […] Administration of the drugs was carried out intravenously with a 1.0 mL syringe fitted with a 27 gauge, 2 inch needle. Body weight was measured daily for at least one week and then at least twice weekly for the remainder of the experiment. Body weights (BW) of mice were expressed as percent change in body weight from the pre-treatment body weight as follows: % BW change=[(BW post/BW pre)−1]×100 where “BW post” is weight after treatment, and “BW pre” is the starting body weight prior to treatment.
Percent body weight loss (BWL) at nadir was expressed as the mean change in body weight post treatment. Animals were sacrificed if body weight dropped more than 20% of initial at any point in the study (1). Mice were also sacrificed if (2) one or both hind legs were paralyzed, or if (3) the animal was too sick to reach food and water.

The results in this text go back to patent publication US10898579B2, “Conjugates of cysteine engineered antibodies” (priority 2015, dated 2021).

B1: huMOV19-C442-D5 (conjugate)
heavy: QVQLVQSGAEVVKPGASVKISCKASGYTFTGYFMNWVKQSPGQSLEWIGRIHPYDGDTFYNQKFQGKATLTVDKSSNTAHMELLSLTSEDFAVYYCTRYDGSRAMDYWGQGTTVTVSSASTKGPSVFPLAPSSKSTSGGTAALGCLVKDYFPEPVTVSWNSGALTSGVHTFPAVLQSSGLYSLSSVVTVPSSSLGTQTYICNVNHKPSNTKVDKKV[gap - human IgG1 Fc with changes]
light: DIVLTQSPLSLAVSLGQPAIISCKASQSVSFAGTSLMHWYHQKPGQQPRLLIYRASNLEAGVPDRFSGSGSKTDFTLTISPVEAEDAATYYCQQSREYPYTFGGGTKLEIKRTVAAPSVFIFPPSDEQLKSGTASVVCLLNNFYPREAKVQWKVDNALQSGNSQESVTEQDSKDSTYSLSSTLTLSKADYEKHKVYACEVTHQGLSSPVTKSFNRGEC
B1: the “Regressions CR” value is 0/6 in series [1] (huMOV19-C442-D5 2.6 μg/kg i.v.) and 6/6 in series [1] (huMOV19-C442-D5 8.7 μg/kg i.v.). The “Regressions PR” value in series [1] (huMOV19-C442-D5 2.6 μg/kg i.v.) was 0/6; in series [1] (huMOV19-C442-D5 8.7 μg/kg i.v.) it was 6/6. Besides, the Result result in series [1] (huMOV19-C442-D5 2.6 μg/kg i.v.) was “Active”; in series [1] (huMOV19-C442-D5 8.7 μg/kg i.v.), “Highly Active”; in series [3] (153 μg/kg i.v.), “Tolerable”; in series [3] (175 μg/kg i.v.), “MTD”; in series [3] (218 μg/kg i.v.) it was “Intolerable”. The “% T/C (Day 22)” value stood at 39% in series [1] (huMOV19-C442-D5 2.6 μg/kg i.v., dose based on D5 concentration) and 2% in series [1] (huMOV19-C442-D5 8.7 μg/kg i.v., dose based on D5 concentration). In series [2], the “activity compared with the Lys-linked conjugate” value was “at least as active as the Lys-linked huMOV19-D2 conjugate”. The “Mean % body weight loss at nadir” value is given as 1.83% in series [3] (153 μg/kg i.v.), 7.11% in series [3] (175 μg/kg i.v.) and 10.32% in series [3] (218 μg/kg i.v.). For the same molecule, the Drug death in series [3] (153 μg/kg i.v.) is reported as 0/8; in series [3] (175 μg/kg i.v.), 1/8; in series [3] (218 μg/kg i.v.), 4/8. Moreover, the results for the day of death in series [3] (175 μg/kg i.v.) and in series [3] (218 μg/kg i.v.) were 11 days and 10 to 13 days, respectively.

B2: huMOV19-D2 (conjugate)
heavy: QVQLVQSGAEVVKPGASVKISCKASGYTFTGYFMNWVKQSPGQSLEWIGRIHPYDGDTFYNQKFQGKATLTVDKSSNTAHMELLSLTSEDFAVYYCTRYDGSRAMDYWGQGTTVTVSSASTKGPSVFPLAPSSKSTSGGTAALGCLVKDYFPEPVTVSWNSGALTSGVHTFPAVLQSSGLYSLSSVVTVPSSSLGTQTYICNVNHKPSNTKVDKKV[gap - human IgG1 Fc with changes]
light: B1 light
B2: in series [1] (huMOV19-D2 2.7 μg/kg i.v.), the “Regressions CR” value was 0/6, the “Regressions PR” value is 0/6 and the Result entry was “Active”. Moreover, the “% T/C (Day 22)” value in series [1] (huMOV19-D2 2.7 μg/kg i.v., dose based on D2 concentration) stood at 32%. In series [1] (huMOV19-D2 8.9 μg/kg i.v.), the “Regressions CR” value is listed as 6/6, the “Regressions PR” value is on record as 6/6 and the Result entry is listed as “Highly Active”. Also, the “% T/C (Day 22)” value in series [1] (huMOV19-D2 8.9 μg/kg i.v., dose based on D2 concentration) is 1%.
